## scFv variants of Ab-14 (heavy chain) against a SARS-CoV-2 spike peptide

The measurements come from Engelhart et al. 2022 (doi:10.1038/s41597-022-01779-4) through the FLAb antibody collection.

Target peptide (SARS-CoV-2 spike, HR2 region): PDVDLGDISGINAS

Parent scFv Ab-14: VH joined to VL by three GGGGS repeats. Changes lie in the heavy chain CDRs alone.
VH: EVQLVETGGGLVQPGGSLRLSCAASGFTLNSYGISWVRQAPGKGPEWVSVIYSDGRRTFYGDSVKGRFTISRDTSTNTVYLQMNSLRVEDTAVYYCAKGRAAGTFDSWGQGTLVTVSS
VL: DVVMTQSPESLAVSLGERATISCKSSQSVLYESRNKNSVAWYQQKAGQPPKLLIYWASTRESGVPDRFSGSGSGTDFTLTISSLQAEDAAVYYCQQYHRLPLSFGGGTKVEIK

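The starting antibody came from a phage panning campaign against this peptide. Variants in AAYL49 differ from the parent at up to three CDR positions; double and triple changes were sampled at random. Affinity was read by AlphaSeq, a pooled yeast mating assay with surface-displayed partners. Binding brings cells together so that they mate, and sequencing counts the barcode pairs among the diploids. Read counts were normalised to the haploid input and turned into Kd by a linear fit to BCL2-family pairs of known affinity, for each replicate. The assay was run in three technical replicates.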

Variants are written as CDR1, CDR2 and CDR3 of the heavy chain (limits as in the source). Parent: GFTLNSYGIS, VIYSDGRRTFYGDSVK, GRAAGTFDS.
The read-out is the apparent dissociation constant on a log10 scale (nM): the lower, the stronger.
"n.d." marks a missing value. The strain was present, yet no cells mated with the target were sequenced in that replicate, which points to weak or no binding.
Three control strains display no target. For library AAYL49, 15% of the pairings with them gave a signal, with a median of 4.06 and one signal in twenty below 2.83, so weak values seen in few replicates may be background. The control count says in how many pairings with the empty strains this scFv gave a signal, with their mean in brackets.
For reference, the parent read 0.65 as the reference entry and 4.11 (one replicate of three) as a member of this library.

| CDR-H1 | CDR-H2 | CDR-H3 | replicates, log10 nM | control signals |
|---|---|---|---|---|
| GFTLNFYGIS | VIYSDGVRTFYGDSVK | GRAATTFDS | n.d. n.d. n.d. | 0 of 9 |
| GFTLNSYGIS | CIYSDGRNTFYGLSVK | GRAAGTFDS | n.d. n.d. n.d. | 1 of 9 (2.88) |
| GFTLNSYGIS | VIYSDVWRTFTGDSVK | GRAAGTFDS | n.d. n.d. n.d. | 1 of 9 (3.96) |
| GFTLNSYGIS | VIYSDGRRTFYGCSVK | GRAAQTFDS | 4.19 3.34 3.63 | 2 of 9 (3.48) |
| GFTLNSYGIS | VIYDDGRRTFYGRSVK | GFAAGTFDS | n.d. 2.38 n.d. | 0 of 9 |
| GDTLNSYGIS | VIYSHGRRTFYGDSVK | GRADGTFDS | n.d. n.d. n.d. | 1 of 9 (4.27) |
| GFTLNSYGIR | VIYSDGRRTFYGDSVK | GRAAGTFDV | n.d. n.d. n.d. | 1 of 9 (5.31) |
| GFTLNSYGIS | VIYSDGRRTFYGDSNK | ARAAGTFDE | n.d. n.d. n.d. | 1 of 9 (3.38) |
| GFTLNSYGIF | VIYSDGRRNFYGDSVK | GRYAGTFDS | 3.61 2.63 3.44 | 0 of 9 |
| GFTLNSSGIV | VIYSDGRRTFYGDSVK | GRAAGTFMS | n.d. n.d. n.d. | 1 of 9 (3.20) |
| GFTLNSYGIS | VIYSDGRRTFYGDSVK | RIAAGTFDS | n.d. n.d. n.d. | 1 of 9 (5.53) |
| GFTLNSYGIS | VIYSDGRRTFYGDSVK | GREAGTFDS | 1.98 2.61 2.36 | 0 of 9 |
| GFTLNSYGIS | VIYWDGRRTFYGDSVK | QRAFGTFDS | n.d. n.d. n.d. | 0 of 9 |
| GFTLNSYGGS | VIYSDGRRTFYGDSVK | GRAAVWFDS | n.d. n.d. n.d. | 1 of 9 (4.03) |
| GFTKTSYGIS | VIYSDGRRTFYGDSVK | GRAAETFDS | n.d. n.d. n.d. | 0 of 9 |
| GFTLNSYGIS | VIYSDGRRTFYGDHVM | GRAAGTCDS | 3.27 3.50 3.75 | 1 of 9 (4.18) |
| GFWLNSLGIS | VIYSDGRRTFYGDSVK | GRAVGTFDS | n.d. n.d. n.d. | 3 of 9 (3.80) |
| GFTLSSFGYS | VIYSDGRRTFYGDSVK | GRAAGTFDS | 5.46 n.d. 4.29 | 3 of 9 (3.93) |
| GFTENSYGIS | VIQSDGRRTHYGDSVK | GRAAGTFDS | n.d. n.d. n.d. | 1 of 9 (2.92) |
| YYTLNSYGIS | VIYSDGRRTFYGDSVK | GRKAGTFDS | 2.83 2.92 2.82 | 2 of 9 (4.35) |
| GFTLNSYGIS | VIYSDGRVTFYGDSVK | GRAAGTFDK | n.d. 3.55 n.d. | 0 of 9 |
| GYRLNSYGIS | VIYSDGRRTFYGDLVK | GRAAGTFDS | 3.43 2.49 3.43 | 3 of 9 (3.48) |
| GFTLNSYTIS | VIYHDGRRTFYGDSVK | GRAASTFDS | n.d. n.d. n.d. | 0 of 9 |
| GFTLNSYGIS | VIVSDGRRTFYGDSVK | GRAAGTFDS | n.d. n.d. n.d. | 0 of 9 |
| GFTLRSYGIS | VIYSDGRRTRYGDSVK | GRAAGTCDS | 6.38 n.d. 4.22 | 6 of 9 (4.46) |
| TFTLNSYGIS | VIYSDGRRTFYGDSSK | GRAAGEFDS | n.d. n.d. n.d. | 3 of 9 (4.13) |
| GFTLNSYGIS | VIYSDGRRTFYGDDVC | GRAATTFDS | 5.36 n.d. n.d. | 0 of 9 |
| GFELNSYGQS | VIYSDGRRTFCGDSVK | GRAAGTFDS | n.d. 4.77 3.91 | 7 of 9 (4.08) |
| GFQLNSYCIS | VIYSNGRRTFYGDSVK | GRAAGTFDS | n.d. n.d. 2.86 | 0 of 9 |
| GFTYNSYGIS | VIYSDGGRTFYGDSVK | GRCAGTFDS | n.d. 3.87 6.72 | 8 of 9 (4.88) |
| GFTLNSMEIS | VIYSDGRRKFYGDSVK | GRAAGTFDS | n.d. n.d. n.d. | 0 of 9 |
| GFTLNSYWIS | VIYSDGRRTFYGESPK | GRAAGTFDS | n.d. n.d. n.d. | 0 of 9 |
| GFTLMSYGIS | VIDSDWRRTFYGDSVK | GRAAGTFDS | 4.43 n.d. n.d. | 4 of 9 (3.80) |
| SATLNSYGIS | VIYSDGRRTFYGKSVK | GRAAGTFDS | 3.14 3.93 2.91 | 5 of 9 (4.16) |
| GFTLNSYGIS | VNYSDGRRTFYGDYVK | GRAAGTFLS | n.d. n.d. n.d. | 1 of 9 (3.56) |
| GFTLNSYGIS | VIYSDGLRTFYGWSVK | GRQAGTFDS | 1.70 1.78 1.88 | 1 of 9 (3.58) |

Picked from the list: the 6 lowest averages where every replicate gave a value.

| CDR-H1 | CDR-H2 | CDR-H3 | replicates, log10 nM | control signals |
|---|---|---|---|---|
| GFTLNSYGIS | VIYSDGLRTFYGWSVK | GRQAGTFDS | 1.70 1.78 1.88 | 1 of 9 (3.58) |
| GFTLNSYGIS | VIYSDGRRTFYGDSVK | GREAGTFDS | 1.98 2.61 2.36 | 0 of 9 |
| YYTLNSYGIS | VIYSDGRRTFYGDSVK | GRKAGTFDS | 2.83 2.92 2.82 | 2 of 9 (4.35) |
| GYRLNSYGIS | VIYSDGRRTFYGDLVK | GRAAGTFDS | 3.43 2.49 3.43 | 3 of 9 (3.48) |
| GFTLNSYGIF | VIYSDGRRNFYGDSVK | GRYAGTFDS | 3.61 2.63 3.44 | 0 of 9 |
| SATLNSYGIS | VIYSDGRRTFYGKSVK | GRAAGTFDS | 3.14 3.93 2.91 | 5 of 9 (4.16) |